Apparent affinities of Ab-91 variants for a coronavirus HR2 peptide

From the AlphaSeq antibody data of Engelhart et al. 2022 (doi:10.1038/s41597-022-01779-4), copy in the FLAb collection.

The target is the same throughout: PDVDLGDISGINAS, from the HR2 region of SARS-CoV-2 spike.

Ab-91 is the parent antibody, in scFv form: VL, then three GGGGS repeats, then VH. The light chain is unchanged in all variants.
VL: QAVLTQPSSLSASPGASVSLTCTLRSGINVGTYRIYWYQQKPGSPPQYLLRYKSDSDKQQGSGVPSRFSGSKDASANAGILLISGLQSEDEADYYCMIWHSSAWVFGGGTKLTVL
VH: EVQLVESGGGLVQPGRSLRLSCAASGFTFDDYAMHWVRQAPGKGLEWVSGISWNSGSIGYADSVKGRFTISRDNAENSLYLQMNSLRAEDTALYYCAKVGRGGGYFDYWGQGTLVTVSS

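The starting antibody came from a phage panning campaign against this peptide. AAYL51 was designed without a model: most single CDR substitutions and a random sample of double and triple ones. The scFvs were displayed on barcoded MATa yeast, the peptide on MATalpha yeast. Mating (16 h, 30 °C) was followed by selection of diploids and sequencing of their barcodes. A regression on co-assayed BCL2-family reference pairs converts the normalised counts of each replicate to an apparent Kd. Mating was done three times.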

Changes read parent residue, position, new residue, counted from the first residue of the VH shown. All variants listed here change V99 of the VH, counted from its first residue. The Kd shown is the geometric mean over detected replicates; a lower Kd is a better binder. "nd" means that the variant was in the library but no mating with the target was seen in any replicate; the authors take this as a sign of poor binding, and no number exists.

The variant F27L/V99C/Y108I gave 210 µM (3 of 3 replicates). For V99S, the assay gave 270 nM (3 of 3 replicates). For F27C/I58C/V99F, the assay gave nd (0 of 3 replicates). The variant H35M/V99W/G103T showed nd (0 of 3 replicates). The variant Y32L/V64S/V99A gave nd (0 of 3 replicates). The variant V99Q gave 900 nM (3 of 3 replicates). The variant S63T/V64R/V99L showed nd (0 of 3 replicates).

For S52Q/I58D/V99P, the assay gave nd (0 of 3 replicates). For F29L/H35Y/V99E, the assay gave 89 µM (1 of 3 replicates). With T28W/G59P/V99K the result was 120 µM (2 of 3 replicates). With G26F/V99I/F106E the result was 6.4 µM (3 of 3 replicates). The variant H35Y/D62T/V99G gave 12 µM (1 of 3 replicates). For I58V/V99W/F106G, the assay gave 460 µM (1 of 3 replicates). The variant Y60T/V99I/G104K gave 81 nM (3 of 3 replicates).

The variant G50K/V99Y/G102E showed 530 µM (2 of 3 replicates). The variant V99M gave 3.5 µM (1 of 3 replicates). For F27R/I51S/V99T, the assay gave 30 µM (2 of 3 replicates). With F29A/D62L/V99S the result was 92 µM (1 of 3 replicates). For D31G/G59F/V99A, the assay gave nd (0 of 3 replicates). The variant H35P/Y60S/V99R showed 32 µM (1 of 3 replicates). The variant G59A/D62R/V99H showed 59 µM (3 of 3 replicates).

The variant M34C/V99S gave 22 µM (1 of 3 replicates). With Y60W/V99S/Y108W the result was 45 µM (1 of 3 replicates). The variant D30S/M34A/V99P gave 40 nM (3 of 3 replicates). The variant I51K/W53G/V99W gave nd (0 of 3 replicates). The variant T28D/Y32E/V99K gave 45 µM (2 of 3 replicates). The variant F27C/D62N/V99F gave nd (0 of 3 replicates). The variant H35L/G59T/V99D showed nd (0 of 3 replicates).

The variant G26H/V99P/F106A showed nd (0 of 3 replicates). For Y32C/V99M/G104S, the assay gave 46 µM (2 of 3 replicates). With I51M/V99Q/Y108E the result was nd (0 of 3 replicates). The variant I51V/A61G/V99D gave 1.9 µM (3 of 3 replicates). The variant V99E/Y105P/D107M gave 20 µM (1 of 3 replicates). The variant S52R/K65S/V99H gave 36 µM (1 of 3 replicates).

The opening 3 entries, copied out:

| changes | apparent Kd | detected |
|---|---|---|
| F27L/V99C/Y108I | 210 µM | 3 of 3 |
| V99S | 270 nM | 3 of 3 |
| F27C/I58C/V99F | nd | 0 of 3 |

For reference, the parent read 72 nM as the reference entry and 7.5 nM as a member of this library. Nonspecific signal, from three strains lacking the peptide, appeared in 21% of pairings of library AAYL51, centred on 34 µM (5% of these signals below 1.8 µM); values are not corrected for it.